The text below walks through data of ChEMBL document CHEMBL5360672, “Identification of Novel Dual-Target Estrogen Receptor α Degraders with Tubulin Inhibitory Activity for the Treatment of Endocrine-Resistant Breast Cancer” (J Med Chem, 2023).

The species named for this test is Homo sapiens. Kind of test: Selectivity ratio of relative binding affinity for human ERalpha to relative binding affinity to human ERbeta.

As for `O=S(=O)(Oc1ccccc1)C1CC2OC1C(c1ccc(O)cc1)=C2c1ccc(O)cc1` (stereo unspecified), the Selectivity ratio turned out to be 2.84.
